{"source": "patent US20250161471A1", "about": "“ANTI-HER2 ANTIBODY-DRUG CONJUGATES AND USES THEREOF” (priority 2021, published 2025)", "key": {"[1]": {"test_system": "advanced breast cancers with HER2 expression", "experiment": "ACE-Breast-01 (ARX788-111) Phase 1 multiple dose-escalation study", "type": "in vivo, human", "settings": "1.5 mg/kg, N = 29"}, "[2]": {"test_system": "Advanced Solid Tumors with HER2-expression or mutation", "experiment": "ACE-Pan tumor-01 (ARX788-1711) Phase 1 study", "type": "in vivo, human"}, "[3]": {"test_system": "HER2-positive advanced gastric cancer or gastroesophageal junction adenocarcinoma (GC/GEJ)", "experiment": "ACE-Gastric-01 Phase 1 clinical trial", "type": "in vivo, human"}, "[4]": {"experiment": "ADC incubated in plasma samples, detection of free AS269", "type": "in vitro ADME", "excerpt": "The resulting ADC has a homogeneous drug to antibody ratio (DAR) of 1.9 to 2.0 (theoretical maximal DAR of 2.0). The mechanism of action of the ADC is achieved through multiple sequential steps. The ADC specifically binds to HER2 on the surface of cancer cells, is rapidly internalized, transports to the lysosome, and is metabolized inside the lysosome to release pAF-AS269, which binds to microtubules and induces cell cycle arrest and cell death. […] Consequently, release of free AS269 is not expected in the circulation after its IV administration. The ADC specifically binds to HER2 on the surface of cancer cells, followed by rapid internalization into the cancer cells, then transports to lysosomes and is metabolized by target cells to release a potent tubulin inhibitor, pAF-AS269 that can inhibit proliferation of cancer cells."}, "[5]": {"experiment": "Cumulative clinical safety data, ARX788-1711 (ACE-Pan-tumor-01) and ARX788-111 (ACE-Breast-01)"}, "[6]": {"settings": "1.5 mg/kg (N = 13 response evaluable)"}}, "data": [{"substance": "ARX788", "values": [{"measurement": "Drug-related Deaths", "setting": "[1]", "value": "0 Number of patients (%)"}, {"measurement": "Pneumonitis/ILD, All Grades", "setting": "[1]; Table 8", "value": "11 Number of patients (%)"}, {"measurement": "Pneumonitis/ILD, All Grades", "setting": "[1]; Table 9", "value": "14 (48.3%) Number of patients (%)"}, {"measurement": "Confirmed ORR", "setting": "[2]; 1.1 mg/kg Q4W (N = 3)", "value": 33, "unit": "%"}, {"measurement": "ORR", "setting": "[2]; 1.1 mg/kg Q4W (N = 3)", "value": 33, "unit": "%"}, {"measurement": "Drug-related Deaths", "setting": "[2]; 1.5 mg/kg, N = 8", "value": "0 Number of patients (%)"}, {"measurement": "response in the first tumor assessment scan", "setting": "[2]; 85-year-old HR+/HER2-low (IHC1+) metastatic breast cancer patient", "value": "partial response"}, {"measurement": "liver metastasis decrease in size", "setting": "[2]; 85-year-old HR+/HER2-low (IHC1+) metastatic breast cancer patient, after 2 cycles", "value": 30, "unit": "%"}, {"measurement": "liver metastasis further decrease in size (PR)", "setting": "[2]; same patient, after 4 cycles", "value": 59, "unit": "%"}, {"measurement": "DCR", "setting": "[3]; [6]", "value": 46, "unit": "%"}, {"measurement": "OOR", "setting": "[3]; [6]", "value": 46, "unit": "%"}, {"measurement": "Confirmed ORR", "setting": "[3]; 1.5 mg/kg Q3W (N = 13 response evaluable)", "value": 46, "unit": "%"}, {"measurement": "patients with confirmed objective response", "setting": "[3]; 1.5 mg/kg Q3W, of 13 patients", "value": 6, "unit": "patients"}, {"measurement": "Drug-related Deaths", "setting": "[3]; 1.5 mg/kg, N = 14", "value": "0 Number of patients (%)"}, {"measurement": "Pneumonitis/ILD, Grade 3 or 4", "setting": "[3]; 1.5 mg/kg, N = 14, Table 8", "value": "0 Number of patients (%)"}, {"measurement": "Pneumonitis/ILD, Grade 3 or 4", "setting": "[3]; 1.5 mg/kg, N = 14, Table 9", "value": "0 Number of patients (%)"}, {"measurement": "free AS269 after incubation in plasma", "setting": "[4]", "value": "no free AS269 was detected"}, {"measurement": "dose at which pneumonitis (delayed SAE) occurs", "setting": "[5]; after 4-5 cycles of administration", "value": "≥ 1.3", "unit": "mg/kg"}, {"measurement": "tolerability", "setting": "[5]; cumulative data from dosed populations", "value": "generally well tolerated"}]}]}
